Measurements: patent US11274129B2, “Methods for protein tyrosine phosphorylation profiling with variant SH2 domains” (priority 2016, dated 2022)

Assays:
[1] = tested on: trastuzumab-resistant SK-BR-3 clone; assay: MTT cell proliferation assay; type: cell-based, human; conditions: 4 μg/ml trastuzumab, 48 hours (FIG. 13A)
[2] = tested on: original (trastuzumab-sensitive) SK-BR-3 clone; assay: MTT cell proliferation assay; type: cell-based, human; conditions: original SK-BR-3 clone; 4 μg/ml trastuzumab, 48 hours (FIG. 13A)
Procedure: SK-BR-3 cells were grown in RPMI 1640 medium supplemented with 10% FBS, 100 μg/ml penicillin/streptomycin and L-glutamine. Cells were incubated at 37° C. in a humidified atmosphere containing 5% carbon dioxide.
Drug sensitivity was measured by MTT cell proliferation assays.

trastuzumab
relative cell proliferation (drug sensitivity) [1]: less sensitive
relative cell proliferation (drug sensitivity) [2]: sensitive
